# According to PubChem BioAssay AID2696 (Johns Hopkins Ion Channel Center, 2010):
# Amino acid sequences for entries named in this document (tags omitted).
# UniProt Q61143, whole entry: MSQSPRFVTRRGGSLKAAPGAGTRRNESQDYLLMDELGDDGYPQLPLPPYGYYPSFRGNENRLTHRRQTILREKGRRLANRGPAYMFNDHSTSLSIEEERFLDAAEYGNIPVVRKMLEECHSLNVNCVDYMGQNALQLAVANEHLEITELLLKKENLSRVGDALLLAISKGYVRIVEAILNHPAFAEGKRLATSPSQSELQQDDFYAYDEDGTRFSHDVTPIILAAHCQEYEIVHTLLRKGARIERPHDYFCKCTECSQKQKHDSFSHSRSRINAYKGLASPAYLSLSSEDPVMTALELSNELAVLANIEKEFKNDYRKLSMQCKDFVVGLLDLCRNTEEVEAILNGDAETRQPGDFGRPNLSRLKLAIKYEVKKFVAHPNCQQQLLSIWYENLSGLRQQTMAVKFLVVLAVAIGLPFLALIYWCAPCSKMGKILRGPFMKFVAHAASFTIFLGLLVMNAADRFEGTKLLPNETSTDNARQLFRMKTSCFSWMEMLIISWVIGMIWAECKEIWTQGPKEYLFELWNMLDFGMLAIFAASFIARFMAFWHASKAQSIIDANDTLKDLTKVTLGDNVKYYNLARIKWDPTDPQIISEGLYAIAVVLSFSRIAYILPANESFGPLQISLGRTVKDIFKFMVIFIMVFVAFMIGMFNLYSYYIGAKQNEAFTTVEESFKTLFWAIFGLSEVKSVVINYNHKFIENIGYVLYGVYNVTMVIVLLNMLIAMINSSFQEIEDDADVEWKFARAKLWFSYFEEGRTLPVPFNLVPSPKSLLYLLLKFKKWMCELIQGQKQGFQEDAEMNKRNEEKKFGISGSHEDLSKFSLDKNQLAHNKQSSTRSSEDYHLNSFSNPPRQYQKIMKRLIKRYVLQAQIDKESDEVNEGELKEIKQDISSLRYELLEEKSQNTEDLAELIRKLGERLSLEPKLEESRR
# Some tests of the compounds listed are not included; inactive here does not mean inactive elsewhere.
# Target: Short transient receptor potential channel 6 (Mus musculus) (UniProt Q61143)
# Assay: TRPC6 inhibitor potency, dose response, cell-based, mouse TRPC6, HEK293, membrane potential (AID 2696)
# Conditions: TRPC6-expressing cells, fluorescence ratio calcium influx
structure (smiles),measurement,value
O=C(OC1CN2CCC1CC2)C(CO)(c1ccccc1)c1ccccc1 (stereo unspecified),IC50,350 nM
